# Laboratory results published in patent publication US10500304B2, “Films and methods of manufacture” (priority 2013, dated 2019).
# Test: Implantation of sleeve-covered metal plates in sheep
# Details: released from the polymer film, sheep studies
substance,measurement,value
gentamicin,Peak plasma gentamicin levels,~0.1 µg/mL
